These are literature values, as cited in PMC3673949, “Small Molecule R1498 as a Well-Tolerated and Orally Active Kinase Inhibitor for Hepatocellular Carcinoma and Gastric Cancer Treatment via Targeting Angiogenesis and Mitosis Pathways” (PLoS ONE, 2013).

This series relates to HER2/neu overexpressing gastric adenocarcinomas. Also noted: method as in PMID 20728210. The conditions noted are these: in combination with chemotherapy; chemotherapy alone 11.1 months; cited from earlier work.

With trastuzumab, the median overall survival is on record as 13.8 months.
